Results published in PMC3172709 (Journal of pharmacy & pharmaceutical sciences : a …, 2011).
Read-outs that look alike come from different tables or passages of the source.

Columns and labels:
P-gp [1] = system: P-gp
P-gp [2] = assay: Western blot analysis of P-gp protein expression in drug-treated LS-180 cells; conditions: read-out: EC50 to up-regulate P-gp expression, 48 h, following normalization to 100%

Question: How did the EC50 (P-gp [1]) turn out when hyperforin was run?
Answer: 20 nM

Question: What about the EC50 (P-gp [2]) of the same substance?
Answer: 5 nM
